From ChEMBL document CHEMBL5365446, “Discovery, Structure-Activity Relationships, and In Vivo Activity of Dihydropyridone Agonists of the Bile Acid Receptor TGR5” (J Med Chem, 2023) come the findings set out here.

The test deals with T1, G-protein coupled bile acid receptor 1 (Mus musculus) (UniProt Q80SS6).
T1 sequence (whole entry): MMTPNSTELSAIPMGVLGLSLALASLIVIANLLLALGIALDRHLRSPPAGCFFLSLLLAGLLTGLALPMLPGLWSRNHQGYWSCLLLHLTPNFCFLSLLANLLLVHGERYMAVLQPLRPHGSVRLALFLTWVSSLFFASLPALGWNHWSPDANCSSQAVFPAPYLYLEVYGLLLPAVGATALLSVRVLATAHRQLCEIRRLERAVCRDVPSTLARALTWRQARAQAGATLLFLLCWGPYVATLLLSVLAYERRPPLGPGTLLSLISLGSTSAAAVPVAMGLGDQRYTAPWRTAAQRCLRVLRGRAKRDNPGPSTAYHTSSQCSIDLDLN
Put plainly: Ex vivo agonist activity at TGR5 in mouse colonoids assessed as increase in GLP-1 secretion incubated for 2 hrs by ELISA method. The class given is functional, tissue-based. The conditions noted are these: Colon organoid, dose <= 50.0 µM. For orientation: An ELISA detects its analyte on a solid surface through an enzyme-linked reagent.

Turning to `COc1ccccc1COC(=O)C1=C(C)N(C[C@H]2CCCO2)C(=O)C[C@H]1c1ccc(Cl)nc1`, the Activity result was “Dose-Dependent Effect”.
